Reference: paper doi:10.1101/2025.08.15.670450
Like-named read-outs stand apart in the source and are kept apart here.

How the values were obtained:
[1] = target: Epidermal Growth Factor Receptor (EGFR) (UniProt P00533); experiment: BLI
[2] = target: Interleukin-7 Receptor Alpha (IL-7RA) (UniProt P16871); experiment: BLI
[3] = target: Interleukin-7 Receptor Alpha (IL-7RA) (UniProt P16871)
[4] = target: SARS-CoV-2 receptor-binding domain (SC2RBD) (SARS-CoV-2) (UniProt P0DTC2); experiment: BLI
[5] = target: SARS-CoV-2 receptor-binding domain (SC2RBD) (SARS-CoV-2) (UniProt P0DTC2)
[6] = target: Tropomyosin receptor kinase A (TrkA) (UniProt P04629)
[7] = target: Tropomyosin receptor kinase A (TrkA) (UniProt P04629); experiment: BLI
[8] = target: Programmed Death-Ligand 1 (PD-L1) (UniProt Q9NZQ7); experiment: BLI
[9] = target: Programmed Death-Ligand 1 (PD-L1) (UniProt Q9NZQ7)
[10] = target: Epidermal Growth Factor Receptor (EGFR) (UniProt P00533)

EGFR_Binder_01 was tested. Which Kd [1] did it give?
The Kd was 110 nM.

GDM_IL7RA_5 was tested. Which Kd [2] did it give?
The Kd was 0.63 nM.

And the Kd [3]?
Its Kd is 0.49 nM.

With GDM_SC2RBD_50 as the substance, how does the Kd [4] read?
Its Kd is 107 nM.

What about the Kd [5] of the same substance?
Its Kd is 30 nM.

Which results are given for GDM_TrkA_130?
Kd [6]: 60 nM; Kd [7]: > 1000 nM

IL-7RA Binder 08 was tested. Which Kd [2] did it give?
The Kd was 1.9 nM.

How did the Kd [2] turn out when IL-7RA_Binder_07 was run?
The Kd was 1.85 nM.

For PD-L1 Binder 03, which Kd [8] is on record?
Its Kd is 21 nM.

PD-L1_Binder_13 was tested. Which Kd [8] did it give?
The Kd was 1.55 nM.

For PD-L1_binder4, which Kd [9] is on record?
Its Kd is 615 nM.

And the Kd [8]?
The Kd was > 1000 nM.

How did the Kd [8] turn out when PD-L1_binder6 was run?
The Kd was 3400 nM.

SC2RBD Binder 04 was tested. Which Kd [4] did it give?
The Kd was 10 nM.

For SC2RBD_Binder_14, which Kd [4] is on record?
Its Kd is 10.3 nM.

TrkA Binder 06 was tested. Which Kd [7] did it give?
The Kd was 130 nM.

For TrkA_Binder_17, which Kd [7] is on record?
Its Kd is 110 nM.

What does the source list for begonia...model2?
Kd [10]: 260 nM; Kd [1]: 140 nM
